Article PMC8880315, “Understanding the Impact of Age-Related Changes in Pediatric GI Solubility by Multivariate Data Analysis” (Pharmaceutics, 2022)

Conditions: both pediatric fasted gastric fluids (Pn-FaSSGF and Pi-FaSSGF) vs adult FaSSGF

CCCCc1oc2ccccc2c1C(=O)c1cc(I)c(OCCN(CC)CC)c(I)c1 [Amiodarone]
Sp/Sa (%) vs 80–[…] threshold: outside the 80–125% threshold
